The record followed here is PubChem BioAssay AID493001 (Johns Hopkins Ion Channel Center, 2010).

This is a selection; strong and weak results do not stand in their true shares. Activity calls are given as the source filed them.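 The calls were made as follows: active = duplicate-averaged calcium rise in uninduced cells above buffer wells' mean plus 5 SD; inactive = the rest.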

A short description of this assay: compound-evoked calcium rise in non-induced M3R cells, confirmation, artefact control for RGS4 inhibitor project, cell-based, HEK293 M3R, no carbachol, second counter-screen (AID 493001). Conditions: Fluo-4 calcium, at 10 µM. (In general: Counterscreens check selectivity or assay interference.)
For the compound `CCc1nc2c(n1)c1c(non1O)c1c2no[n+]1[O-]`, the result was inactive.
